# From patent publication US20020115211A1, “A METHOD FOR IN VITRO MATURATION OF HUMAN GAMETES” (MEDI-CULT A/S, priority 1998, published 2002)
# Key:
# immature human gametes = assay: Lowering the HSA content of the maturation medium, pregnancy rates; format: cell-based; conditions: content in the medium lowered from 5% to 0.5%; preliminary results
# PCO patients = assay: Impact of FSH priming on oocytes obtained for IVM, maturation rate, cleavage rate and pregnancy (Example 2); format: in vivo, human; conditions: for MF-II (%): percentage of cumulus enclosed oocytes; for cleavage (%): percentage of mature MF-II oocytes
# Excerpt: Eighteen patients are recruited among PCO patients referred for IVF. Included in the study are all women with typical PCO patterns at ultrasound, which means more than ten follicles in one plane located subcapsulary in each ovary. Excluded are all patients with body weight more than 20% of normal for the same height and women with contradictions for pregnancy. Also excluded are patients with elevated prolactin and FSH value (>10 IU) on cycle day 3. The study is approved by the local ethical committee. All women particiin the study after written consent.
# The women are randomly allocated to three groups according to their entrance in the study. Group I (n=6 cycles) receive no stimulation, Group II (n=6 cycles) receive rec-FSH from day 3 and given from 3 to 7 days, aspiration is performed within 24 hours after the last injection. In group III (n=8 cycles), stimulation with rec-FSH (Gonal-F) as in group II, but oocyte recovery is performed 48-72 hours after the last injection.
# Immature oocyte collection is performed between cycle day 7 and 13 by use of an aspiraneedle from Cook Ltd described by Carl Wood. The aspiration pressure is reduced to 100 mmHg on the assumption that the immature cumulus or egg may be more susceptito mechanical injury, or the needle in a small follicle may directly damage the egg if the egg is sucked forcefully from a small volume of fluid into the end of the needle. The follicles are punctured. After aspiration the needle is flushed with Earles Balanced Salt solution with Hepes and bicabonate buffers plus heparin (100IU/ml) as described by Trounson et al.
# The follicular aspirates are transferred in tubes to the laboratory and washed on an emfilter with a pore size of 70 μm. Erythrocytes and other small cells are washed through the filter and oocytes and larger fragments of cells are collected in Petri culture dishes. The immature oocytes are identified and graded based on the presence or abof cumulus cells as ether complete multilayered, sparse or nude.
# Oocytes are matured in tissue culture medium 199 (TCM 199; Sigma) supplemented with Sodiumpyruvate 0.3mM, rec-FSH 0.075IU/ml (Gonal-F; Serono), hCG 0.05 IU/ml (Profasi; Serono), and albumin 1%. Later the medium is supplemented with oestradiol 1μg/ml, an increased concentration of HSA (5%) or serum from the patient (10%) instead of albumin.
# Fertilization with ICSI is performed on all Metaphase II oocytes and the oocytes are checked for the presence of two pronuclei the day after insemination and cleavage of the 2PN-oocytes is registered on day 2 after insemination.
# The statistical methods include Student´s t-test. A two-tailed p<0.05 is considered statistisignificant.
# [1] = group 2: rec-FSH, aspiration without delay
# [2] = group 2 with FSH priming compared to group 1 (unstimulated) and group 3
# [3] = group 3 (FSH primed, aspirated with delay) compared to group 1
# [4] = group 3: rec-FSH, aspiration 48-72 hours after last injection
# [5] = the pregnant patient of group 3, stimulation for 3 days with 150 IU
substance,measurement,setting,value
Human Serum Albumin (HSA): Serum derived albumin supplement of the maturation medium,effect on pregnancy rates,immature human gametes,no effect on pregnancy rates
rec-FSH: Recombinant follicle stimulating hormone (Gonal-F; Serono) given to patients from cycle day 3,oocytes enclosed by cumulus that could be used for in vitro maturation,PCO patients; after FSH stimulation versus no stimulation,Significantly more
same,no oocytes aspirated,"PCO patients; group 2: rec-FSH stimulation, aspiration without delay (within 24 hours after last injection), 6 patients",28
same,MF-II no,PCO patients; [1],6
same,Pregnancy no,PCO patients; [1],0
same,Transfer no,PCO patients; [1],1
same,no oocytes for IVM,PCO patients; [1],26 and 26^1
same,MF-II (%),PCO patients; [1],23%
same,cleavage (%),PCO patients; [1],16%
same,"cleavage rate, comparison between groups",PCO patients; [2],significantly reduced
same,"maturation rate, comparison between groups",PCO patients; [2],significantly reduced
same,"cleavage rate, comparison between groups",PCO patients; [3],no difference
same,"maturation rate, comparison between groups",PCO patients; [3],significantly increased
same,time after which MF-II oocytes were seen (late maturation),"PCO patients; group 3, two patients with 48 hours delay between last injection and aspiration",56 h
same,no oocytes aspirated,"PCO patients; group 3: rec-FSH stimulation, oocyte recovery 48-72 hours after last injection, 8 patients",40
same,MF-II no,PCO patients; [4],29
same,Transfer no,PCO patients; [4],8
same,cleavage no,PCO patients; [4],20
same,no oocytes for IVM,PCO patients; [4],35 and 35^1
same,MF-II (%),PCO patients; [4],82%
same,cleavage (%),PCO patients; [4],69%
same,immature oocytes retrieved,PCO patients; [5],9
same,oocytes cleaved,PCO patients; [5],5
same,oocytes matured,PCO patients; [5],Six

# “And” between values parts separate entries of the source, which are not always exact repeats. Equal entries are not always repeated.
